Earlier results in US20100022549A1, “ALPHA-HELIX MIMETIC WITH FUNCTIONALIZED PYRIDAZINE” (The Scripps Research Institute, priority 2008, published 2010).

The chains behind the UniProt entries cited, without tags or fusion partners.
UniProt Q07817, whole entry, species assumed: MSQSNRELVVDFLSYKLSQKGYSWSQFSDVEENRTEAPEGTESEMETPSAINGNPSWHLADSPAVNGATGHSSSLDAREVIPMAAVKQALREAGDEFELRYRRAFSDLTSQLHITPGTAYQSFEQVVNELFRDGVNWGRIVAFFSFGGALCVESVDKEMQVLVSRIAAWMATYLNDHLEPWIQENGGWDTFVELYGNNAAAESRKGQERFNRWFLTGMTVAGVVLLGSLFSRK

Target: Bcl-xL (Homo sapiens, UniProt Q07817)
Settings: 16 residue BH3 domain peptide from Bak (aa 72 to 87) bound to Bcl-xL

pKd: ~6.52
Substance: 16 residue BH3 domain peptide from Bak: 16 residue BH3 domain peptide from Bak (aa 72 to 87)

pKd: −log10 of the molar value.
